Measurements published in patent publication US20070207975A1, “Materials and methods for treating and preventing Her-2/neu overexpressing, FAS-elevated cancer cells” (EVANSTON NORTHWESTERN HEALTHCARE, priority 2006, published 2007).

Tested on: BT-474 cells
Experiment: TUNEL apoptosis assay, BT-474
Format: cell-based, human
Protocol: FIG. 6. […] The immunofluorescence photomicrographs of cells undergoing apoptosis (green staining) and the corresponding DAPI-counterstained photomicrographs are shown. […] Equal amounts of total protein (50 μg per lane) were subjected to Western blot analyses with a specific antibody against the p85 fragment of PARP, and then re-probed with a β-actin antibody. […] Similar results were obtained in three independent experiments. […] For each pair of columns, the height of the columns on the left represents the sum of the effect of each agent alone and, therefore, the expected apoptotic cell death if their effect was additive when used in combination. […] A) Cell surface expression of Her-2/neu protein in BT-474 and SK-Br3 cells was determined by flow cytometry using a mouse anti-Her-2/neu antibody directed against the extracellular domain of the p185^Her-2/neu oncoprotein (clone Ab-5; Oncogene Research Products; San Diego, Calif.). […] The mean fluorescence signal associated with cells for labeled p185^Her-2/neu was quantified using the Geo Mean (GM) fluorescence parameter provided with the software. […] Immunoreactive bands were detected by enhanced chemiluminescence reagent (Pierce, Rockford, Ill.). […] Densitometric values of protein bands were quantified using Scion Imaging Software (Scion Corp., Frederick, Md.). […]

Substance: trastuzumab: humanized monoclonal IgG1, binding with high affinity to the ectodomain of p185^Her-2/neu [reference compound]
- cells that underwent apoptosis (TUNEL) (GLA 10 μg/mL, trastuzumab 10 μg/mL, alone or together, 48 hours): 13% (95% CI=11% to 15%)
- TUNEL-positive cells (OA 5 μM, trastuzumab 10 μg/ml, alone or simultaneously, 72 hours): 16%
